Measured values taken from ChEMBL document CHEMBL1131389, “Unusual synthesis of new glycine antagonists via sequential aldol condensation-lactonization-elimination reaction” (Bioorg Med Chem Lett, 1998).

Target: Glutamate receptor ionotropic, NMDA 1 (Rattus norvegicus) (UniProt P35439)
Experiment: In vitro affinity of compound for the glycinergic site associated with NMDA receptor was assessed by inhibition of the binding of [3H]glycine

## O=C(/C=C/c1c(C(=O)O)[nH]c2cc(Cl)cc(Cl)c12)Nc1ccccc1
  pKi: 8.5
